Legend:
Format in all cases: cell-based
apelinR / β-arrestin2 = target: T1, apelinR / β-arrestin2 (Homo sapiens, UniProt P35414); assay: ebBRET β-arrestin2 recruitment; settings: HEK293 cells transfected with apelinR, β-arrestin2-RlucII, rGFP-CAAX; 10 min at 37 °C; mean ± SEM of 5 to 6 independent experiments
T1 sequence (P35414 1-380): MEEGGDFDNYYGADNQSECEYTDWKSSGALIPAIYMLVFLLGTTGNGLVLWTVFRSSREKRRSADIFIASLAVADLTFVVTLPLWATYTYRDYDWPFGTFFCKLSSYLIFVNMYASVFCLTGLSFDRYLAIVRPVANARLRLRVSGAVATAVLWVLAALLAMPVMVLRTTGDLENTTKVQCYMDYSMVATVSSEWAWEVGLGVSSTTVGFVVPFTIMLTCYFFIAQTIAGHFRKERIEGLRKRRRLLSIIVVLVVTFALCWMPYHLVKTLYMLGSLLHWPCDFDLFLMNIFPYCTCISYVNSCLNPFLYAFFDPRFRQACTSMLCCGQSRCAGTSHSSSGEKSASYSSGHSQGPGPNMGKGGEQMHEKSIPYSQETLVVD

apelinR / β-arrestin1 = target: T2, apelinR / β-arrestin1 (Homo sapiens, UniProt P35414); assay: ebBRET β-arrestin1 recruitment; settings: HEK293 cells transfected with apelinR, β-arrestin1-RlucII, rGFP-CAAX; 10 min at 37 °C; mean ± SEM of 5 to 6 independent experiments
T2 sequence (P35414 1-380): T1 sequence (P35414 1-380)

apelinR / human Gαi2 = target: T3, apelinR / human Gαi2 (Homo sapiens, UniProt P35414); assay: ebBRET Gαi2 activation; settings: HEK293 cells transfected with apelinR, human Gαi2, Rap1GAP-RlucII, rGFP-CAAX; 10 min at 37 °C; mean ± SEM of 5 to 6 independent experiments
T3 sequence (P35414 1-380): T1 sequence (P35414 1-380)

- β-arr2 recruitment log EC50 (apelinR / β-arrestin2): 9.00 ± 0.03
- β-arr1 recruitment log EC50 (apelinR / β-arrestin1): 8.96 ± 0.04
- Gαi2 activation log EC50 (apelinR / human Gαi2): 10.67 ± 0.04
Structure (SMILES): COc1cccc(OC)c1-n1c(NS(=O)(=O)[C@@H](C)[C@H](C)c2ncc(C)cn2)nnc1-c1cncc(C)c1 [AMG-986]

Source: paper PMC12715805, “Screening apelin analogues and a small molecule agonist as effective cardiovascular therapeutics against reperfusion injury” (RSC Medicinal Chemistry, 2025)
